This is an account of results in ChEMBL document CHEMBL1134775, “Structure-based design: potent inhibitors of human brain memapsin 2 (beta-secretase)” (J Med Chem, 2001).

Amino acid sequences for entries named in this document (tags omitted). A change or cut given only in a name is not applied to a line headed by its entry.
UniProt P56817: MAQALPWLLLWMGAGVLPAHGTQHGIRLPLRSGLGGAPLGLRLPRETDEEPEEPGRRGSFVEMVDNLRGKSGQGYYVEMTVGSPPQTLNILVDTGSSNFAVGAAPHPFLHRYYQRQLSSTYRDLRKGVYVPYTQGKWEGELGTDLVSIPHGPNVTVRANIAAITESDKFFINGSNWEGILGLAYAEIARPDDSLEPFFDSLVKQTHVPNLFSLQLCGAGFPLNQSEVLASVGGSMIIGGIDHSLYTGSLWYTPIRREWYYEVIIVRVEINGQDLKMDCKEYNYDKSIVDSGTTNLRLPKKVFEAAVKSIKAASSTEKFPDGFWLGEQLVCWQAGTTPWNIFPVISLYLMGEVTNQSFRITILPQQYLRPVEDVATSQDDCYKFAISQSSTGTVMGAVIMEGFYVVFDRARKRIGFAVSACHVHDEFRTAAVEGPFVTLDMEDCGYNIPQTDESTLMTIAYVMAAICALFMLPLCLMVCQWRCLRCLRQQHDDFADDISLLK

The assay addresses Beta-secretase 1 (Homo sapiens, UniProt P56817). Put plainly: Binding affinity for human brain memapsin 2.

Each structure is given as a SMILES string.

For orientation: Ki means the equilibrium dissociation constant of an inhibitor or competing ligand from its target. Low readings indicate higher affinity, high ones lower affinity.

As to `CSCC[C@H](NC(=O)[C@@H](NC(=O)OC(C)(C)C)C(C)C)C(=O)N[C@@H](CC(C)C)[C@@H](O)C[C@@H](CC(C)C)C(=O)N[C@H](C(=O)NCc1ccccc1)C(C)C`, the Ki was found to be 10.5 µM. Then `CC(C)C[C@H](NC(=O)[C@H](CCS(C)(=O)=O)NC(=O)[C@@H](NC(=O)OC(C)(C)C)C(C)C)[C@@H](O)C[C@@H](C)C(=O)N[C@H](C(=O)NCc1ccccc1)C(C)C`, with 0.008 µM.
